Legend:
D(2) dopamine receptor [1] = biological target: T1, D(2) dopamine receptor (Bos taurus, UniProt P20288); test: High binding affinity for dopamine D-2 receptor from bovine anterior pituitary membrane, using radioligand [3H]spiroperidol
D(2) dopamine receptor [2] = biological target: T1, D(2) dopamine receptor; test: Low binding affinity for dopamine D-2 receptor from bovine anterior pituitary membrane, using radioligand [3H]spiroperidol

Chains of the proteins cited; added tags and fusions are not shown.
UniProt P20288, whole entry: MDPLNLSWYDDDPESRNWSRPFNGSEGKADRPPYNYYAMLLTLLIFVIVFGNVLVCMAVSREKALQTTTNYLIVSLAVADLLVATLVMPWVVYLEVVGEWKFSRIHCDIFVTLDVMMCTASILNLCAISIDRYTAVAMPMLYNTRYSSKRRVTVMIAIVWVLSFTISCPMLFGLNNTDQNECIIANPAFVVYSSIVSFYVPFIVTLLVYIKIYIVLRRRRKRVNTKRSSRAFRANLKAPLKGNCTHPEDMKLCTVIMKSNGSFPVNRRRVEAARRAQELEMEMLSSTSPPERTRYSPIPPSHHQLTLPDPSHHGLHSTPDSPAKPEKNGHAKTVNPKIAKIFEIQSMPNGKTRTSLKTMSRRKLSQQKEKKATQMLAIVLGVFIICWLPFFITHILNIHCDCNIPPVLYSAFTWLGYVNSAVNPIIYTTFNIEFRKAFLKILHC

SMILES: CCCN1C[C@H](CSC)C[C@@H]2c3cc(O)c(O)cc3CC[C@H]21
- Ki (D(2) dopamine receptor [1]): 2 nM
- Ki (D(2) dopamine receptor [2]): 110 nM
